Earlier results on 1 compound are cited in patent US20210196676A1, “TREATMENT OF VIRAL INFECTIONS AND VIRALLY ASSOCIATED LESIONS WITH SEQUITERPENE LACTONES” (The Board of Regents of the University of Texas System, priority 2018, published 2021).

Molecules are shown by their SMILES.

The conditions of this series: in vivo; cited from earlier work.

As for `C=C1C(=O)O[C@@H]2C[C@@H](C)[C@@H]3C=CC(=O)[C@@]3(C)[C@@H](O)[C@H]12` (racemic) [H. tox, (±)-4-Hydroxy-4a,8-dimethyl-3,3a,4a,7a,8,9,9a-octahydroazuleno[6,5-b]furan-2,5-dione], the “oral LD50” value is 85 to 150 mg/kg.
